Laboratory results reported in PMC6974774, “NanoBiT Complementation to Monitor Agonist-Induced Adenosine A1 Receptor Internalization” (Slas Discovery, 2019).

By UniProt entry, the sequences of proteins in these tests, tags left out.
UniProt P30542, whole entry M1L: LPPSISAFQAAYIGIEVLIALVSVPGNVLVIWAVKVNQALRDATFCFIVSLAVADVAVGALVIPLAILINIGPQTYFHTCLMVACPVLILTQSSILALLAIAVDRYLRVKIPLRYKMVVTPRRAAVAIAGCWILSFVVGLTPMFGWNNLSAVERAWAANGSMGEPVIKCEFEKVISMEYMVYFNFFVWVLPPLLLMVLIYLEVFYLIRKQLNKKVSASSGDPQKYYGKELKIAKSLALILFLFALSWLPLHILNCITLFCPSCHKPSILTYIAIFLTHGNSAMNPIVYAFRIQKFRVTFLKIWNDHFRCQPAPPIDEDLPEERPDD

Molecular target: HiBiT–A1AR (human adenosine A1 receptor) (Homo sapiens, UniProt P30542, M1L)
Assay: NanoBiT internalization assay (loss of cell-surface HiBiT–A1AR luminescence)
Format: cell-based
Parameters: creating the full-length fusion protein HiBiT–A1AR; expressed in transfected cells
Procedure: HEK293 cells stably expressing HiBiT–A1AR were plated onto white 96-well plates (Greiner Bio-One, Monroe, NC) previously coated with 10 µg/mL poly-D-lysine. 100 µL DMEM containing cells in suspension (30,000 cells/well) was added to each well, and the plate incubated at 37 °C in a 5% CO2 atmosphere for 24 h. […] For end-point assays, cells were incubated at 37 °C for 2 h. Purified LgBiT was diluted in HBSS (10 nM final concentration) and added to each well in the presence of furimazine (1:400 final concentration). […] Luminescence was measured on the PHERAstar FS plate reader (BMG Labtech, Offenburg, Germany) using the LUM Plus module.
The potency of ligands that internalized HiBiT–A1AR was determined from fitting data to a one-site sigmoidal concentration–response curve defined by the following three-parameter logistic equation: […]

For `CCNC(=O)[C@H]1O[C@@H](n2cnc3c(N)ncnc32)[C@H](O)[C@@H]1O` [NECA, 5′-N-ethylcarboxamidoadenosine], the “agonist character in internalization assay” value (HEK293 HiBiT–A1AR, panel of A1 receptor agonists) was “full agonists” and the “Emax (% 100 µM NECA)” value (HEK293 cells, 2 h incubation) was 100 % 100 µM NECA.
